The target in this experiment is BAG6 LIR1 peptide (residues 124-143) (UniProt P46379). The experiment is described as follows: fluorescence polarisation; fluorescence anisotropy; peptide at 1 μM, LC3B-I or Pro-LC3B added from 0 to 50 μM; Kd by nonlinear curve fitting; three independent experiments.

Broadly, the Kd is the equilibrium constant for the complex coming apart.

As for “Pro-LC3B (from UniProt Q9GZQ8 1-120) (natural protein)”, the Kd is 17.7 µM.

For the origin of these results see PMC7674511.
